Patent EP4825857A1, “TRICYCLIC FUSED HETEROCYCLIC PDE3/4 DUAL INHIBITOR, AND PREPARATION AND USE THEREFOR” (dated 2026)

By UniProt entry, the sequences of proteins in these tests, tags left out.
UniProt P11712, whole entry: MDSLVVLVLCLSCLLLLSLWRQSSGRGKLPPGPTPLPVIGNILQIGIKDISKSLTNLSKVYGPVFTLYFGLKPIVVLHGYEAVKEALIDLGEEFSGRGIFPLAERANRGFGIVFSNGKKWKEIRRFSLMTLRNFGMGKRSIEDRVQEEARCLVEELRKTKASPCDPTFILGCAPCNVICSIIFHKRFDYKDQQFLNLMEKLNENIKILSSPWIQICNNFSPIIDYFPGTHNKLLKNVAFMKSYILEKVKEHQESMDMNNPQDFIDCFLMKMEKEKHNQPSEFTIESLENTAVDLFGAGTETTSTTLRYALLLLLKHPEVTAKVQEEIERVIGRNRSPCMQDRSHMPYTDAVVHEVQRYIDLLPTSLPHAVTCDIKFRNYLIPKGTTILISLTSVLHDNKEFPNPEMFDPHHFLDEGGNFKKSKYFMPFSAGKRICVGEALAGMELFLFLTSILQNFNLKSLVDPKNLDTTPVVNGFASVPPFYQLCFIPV
UniProt P08684, whole entry: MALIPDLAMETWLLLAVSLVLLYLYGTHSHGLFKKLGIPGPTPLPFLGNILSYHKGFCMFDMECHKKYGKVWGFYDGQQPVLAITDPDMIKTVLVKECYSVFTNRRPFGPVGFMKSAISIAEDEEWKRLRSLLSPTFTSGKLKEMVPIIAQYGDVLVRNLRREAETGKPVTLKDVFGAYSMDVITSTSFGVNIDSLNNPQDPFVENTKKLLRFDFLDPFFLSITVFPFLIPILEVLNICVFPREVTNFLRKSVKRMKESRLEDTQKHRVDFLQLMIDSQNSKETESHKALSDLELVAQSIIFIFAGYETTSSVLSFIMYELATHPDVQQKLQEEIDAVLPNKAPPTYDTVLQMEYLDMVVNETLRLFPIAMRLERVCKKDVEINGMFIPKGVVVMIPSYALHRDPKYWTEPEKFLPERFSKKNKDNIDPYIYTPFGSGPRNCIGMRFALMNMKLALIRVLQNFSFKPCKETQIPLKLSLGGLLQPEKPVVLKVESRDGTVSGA
UniProt P10635, whole entry: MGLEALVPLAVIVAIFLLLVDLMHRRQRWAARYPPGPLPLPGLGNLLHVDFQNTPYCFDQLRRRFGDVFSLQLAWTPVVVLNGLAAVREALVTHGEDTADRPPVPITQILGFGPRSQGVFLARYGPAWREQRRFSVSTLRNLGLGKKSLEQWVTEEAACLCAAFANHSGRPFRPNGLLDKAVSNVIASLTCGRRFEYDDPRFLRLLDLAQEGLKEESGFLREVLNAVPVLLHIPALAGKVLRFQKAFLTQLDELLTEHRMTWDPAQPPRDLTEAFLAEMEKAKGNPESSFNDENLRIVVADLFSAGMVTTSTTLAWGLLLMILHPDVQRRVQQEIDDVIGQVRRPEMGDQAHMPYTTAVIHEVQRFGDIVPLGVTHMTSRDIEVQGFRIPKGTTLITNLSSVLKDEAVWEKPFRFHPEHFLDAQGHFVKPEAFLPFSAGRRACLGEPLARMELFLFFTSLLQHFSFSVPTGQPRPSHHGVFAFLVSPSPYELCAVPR

Tests used:
[1] = Oral bioavailability and pharmacokinetic study in rats; conditions: rat; for major pharmacokinetic profiles (in words): 1 mg/kg iv and po; for AUCINF_obs / AUClast / C0 / T1/2 / Cmax / Tmax: 1 mg/kg; for F: po (oral gavage) 1 mg/kg versus iv 1 mg/kg
Protocol: Test Objective: To evaluate the oral bioavailability and other pharmacokinetic parameters of RPL-554, and Compounds 1-2, 10-2, 67, and 69 of the present disclosure in rats following oral gavage at 1 mg/kg.
Animals: Male SD rats, n = 30.
The dosing solution for the RPL-554-iv-1 mg/kg group and the RPL-554-po-1 mg/kg group was prepared as follows: approximately 3.11 mg of RPL-554 was weighed, 0.3 mL of DMSO was added, then 29.7 mL of normal saline was added, and the mixture was vortexed for 2 min. The solution was freshly prepared before use.
The dosing solution for the Compound 10-2-iv-1 mg/kg group and the Compound 10-2-po-1 mg/kg group was prepared as follows: approximately 3.0 mg of Compound 10-2 was weighed and mixed with 0.3 mL of DMSO. After thorough mixing, 29.7 mL of 10% sulfobutyl ether-β-cyclodextrin in normal saline was added, and the mixture was vortexed for 2 min until completely dissolved. The solution was freshly prepared before use.
The dosing solution for the Compound 1-2-iv-1 mg/kg group and the Compound 1-2-po-1 mg/kg group was prepared as follows: approximately 3.0 mg of Compound 1-2 was weighed and mixed with 0.3 mL of DMSO, followed by addition of 29.7 mL of normal saline. The mixture was vortexed for 2 min. The solution was freshly prepared before use.
The dosing solution for the Compound 67-iv-1 mg/kg group and the Compound 67-po-1 mg/kg group was prepared as follows: approximately 3.0 mg of Compound 67 was weighed and mixed with 1.5 mL of purified polyoxyethylene 35 castor oil, followed by addition of 28.5 mL of normal saline. The mixture was vortexed for 2 min and sonicated until completely dissolved. The solution was freshly prepared before use.
The dosing solution for the Compound 69-iv-1 mg/kg group and the Compound 69-po-1 mg/kg group was prepared as follows: approximately 3.0 mg of Compound 69 was weighed and mixed with 1.5 mL of PEG-400. After thorough mixing, 28.5 mL of normal saline was added, and the mixture was vortexed for 2 min and sonicated until completely dissolved. The solution was freshly prepared before use.
Dosing Regimen: Rats in the intravenous groups were administered by tail vein injection, and rats in the oral gavage groups were administered by oral gavage.
Rat dosing and sampling: The rats were divided into ten groups and received the corresponding test compounds at a dosing volume of 10 mL/kg by either intravenous injection via the tail vein or oral gavage. Blood samples of 0.2 mL were collected at 5, 15, and 30 min and at 1, 2, 4, 6, 8, 12, 24, and 48 h after dosing. Each blood sample was placed in a disposable anticoagulant tube and centrifuged at 3,500 rpm for 10 min at 4 °C. Plasma was then separated and stored at -20 °C until analysis.
Plasma Sample Preparation and LCMS Analysis: 50 µL of each plasma sample was transferred to a 1.5 mL centrifuge tube, and 200 µL of an internal standard working solution was added. The mixture was vortexed for 5 min and then centrifuged at 12,000 rpm for 10 min. The supernatant was transferred to an autosampler vial for LC/MS analysis, and chromatographic data were acquired.

CYP2C9 = CYP2C9 (Homo sapiens, UniProt P11712); test: CYP450 DDI, inhibition in liver microsomes; conditions: 10 µM, 10 min, microsomal protein 0.5 mg/mL
Protocol: (§1) Test Objective: To evaluate the inhibitory effects of RPL-554, Compound 1-2, Compound 10-2, Compound 67, and Compound 69 on CYP3A4, CYP2C9, and CYP2D6.
(§2) CYP enzymes: CYP3A4, CYP2C9, and CYP2D6.
(§3) Incubation conditions: test compound incubation time, 5 min for CYP3A4, and 10 min for CYP2C9 and CYP2D6; test compound final concentration, 10 µM; microsomal protein concentration, 0.5 mg/mL; NADPH concentration, 1.0 mM; temperature, 37.0 °C.
(§4) Working solutions of the substrates and inhibitors for CYP2C9, CYP2D6, and CYP3A4 were prepared separately.
(§5) The NADPH solution was prepared and prewarmed at 37 °C in a shaking water bath before use.
(§6) Liver microsomes were thawed and diluted with a buffer.
(§7) The corresponding solutions were added to each well of an incubation plate and preincubated for 15 minutes. Group: Test group = Test compound at different concentrations + liver microsomes in a solution. Negative control group (NC) = microsomes + a buffer. Positive control group (PC) = microsomes + selective inhibitor for the corresponding CYP isoform.
(§8) After preincubation, a reactions was initiated by adding the corresponding solution (CYP3A4: 5 min; CYP2C9 and CYP2D6: 10 min). Test group = substrate for each CYP isoform + coenzyme. Negative control group (NC) = substrate for each CYP isoform + coenzyme. Positive control group (PC) = substrate for each CYP isoform + coenzyme.
(§9) All samples were incubated at 37 °C. At the termination time point, each reaction was stopped by adding pre-chilled methanol and the time was recorded.
(§10) After thorough mixing, all samples were centrifuged at 4,000 rpm for 10 min. The supernatants were collected and analyzed by LC-MS/MS.

CYP3A4 = CYP3A4 (Homo sapiens, UniProt P08684); test: CYP450 DDI, inhibition in liver microsomes; conditions: 10 µM, 5 min
Protocol: as §1, §2, §3, §4, §5, §6, §7, §8, §9, §10

CYP2D6 = CYP2D6 (Homo sapiens, UniProt P10635); test: CYP450 DDI, inhibition in liver microsomes; conditions: 10 µM, 10 min, microsomal protein 0.5 mg/mL
Protocol: as §1, §2, §3, §4, §5, §6, §7, §8, §9, §10

SMILES	major pharmacokinetic profiles (in words) [1]	AUCINF_obs ([1]; iv (tail vein)) [ng·h/mL]	AUClast ([1]; iv (tail vein)) [ng·h/mL]	C0 ([1]; iv (tail vein)) [ng/mL]	T1/2 ([1]; iv (tail vein)) [h]	F [1] [%]	AUCINF_obs ([1]; po (oral gavage)) [ng·h/mL]	AUClast ([1]; po (oral gavage)) [ng·h/mL]	Cmax ([1]; po (oral gavage)) [ng/mL]	T1/2 ([1]; po (oral gavage)) [h]	Tmax ([1]; po (oral gavage)) [h]	Relative Activity (% of NC) CYP2C9 (CYP2C9)	Relative Activity (% of NC) CYP3A4 (substrate: midazolam) (CYP3A4)	Relative Activity (% of NC) CYP3A4 (substrate: testosterone) (CYP3A4)	Relative Activity (% of NC) CYP2D6 (CYP2D6)
COc1cc2c(cc1OC)-c1cc(N(c3c(C)cc(C)cc3C)C(C)CNC(=O)c3ncc[nH]3)nc(=O)n1CC2 (single isomer, unassigned) [Compound 10-2]	generally comparable to that of the reference compound RPL-554	381.58	381.25	706.51	0.58	1.23	4.69	4.02	3.83	2.05	0.42	69.9 % of NC	95.2 % of NC	107 % of NC	106 % of NC
COc1cc2c(cc1OC)-c1cc(N(c3c(C)cc(C)cc3C)C(C)CNC(=O)c3cccc(N)n3)nc(=O)n1CC2 (centres unmarked)	generally comparable to that of the reference compound RPL-554	196.57	193.67	339.49	1.08	1.24	2.43	1.04	0.76	2.76	0.83	16.8 % of NC	17.2 % of NC	31.7 % of NC	82.0 % of NC
COc1cc2c(cc1OC)-c1cc(N(c3c(C)cc(C)cc3C)C(C)CNC(N)=O)nc(=O)n1CC2 (single isomer, unassigned) [Compound 1-2]	generally comparable to that of the reference compound RPL-554	347.40	347.00	748.58	1.10	1.50	5.21	2.23	1.15	9.61	0.28	67.3 % of NC	78.9 % of NC	66.2 % of NC	89.8 % of NC
COc1cc2c(cc1OC)-c1cc(N(c3c(C)cc(C)cc3C)C(C)CNC(=O)c3cc(N)ccn3)nc(=O)n1CC2 (centres unmarked)	generally comparable to that of the reference compound RPL-554	237.56	215.26	407.83	2.03	1.84	4.36	3.04	2.62	3.42	0.67	26.0 % of NC	26.5 % of NC	28.4 % of NC	91.6 % of NC
COc1cc2c(cc1OC)-c1cc(=Nc3c(C)cc(C)cc3C)n(CCNC(N)=O)c(=O)n1CC2		211.41	210.79	333.09	1.62	1.48	3.13	1.59	0.91	4.60	0.25	66.5 % of NC	76.5 % of NC	97.3 % of NC	94.1 % of NC
